The results in this text go back to publication PMC7959846, “Block of Voltage-Gated Sodium Channels by Atomoxetine in a State- and Use-dependent Manner” (Frontiers in Pharmacology, 2021).

In test [1] the target is hNav1.5_I408W_L409C_A410W_F1760K (F1760K_WCW mutant) (Homo sapiens, UniProt Q14524, A410W/F1760K/I408W/L409C). The test can be described thus: Binding site: late current of the F1760K mutant in the WCW background. The class given is cell-based.
Test [2] has as its target T1, hNav1.5_I408W_L409C_A410W (WCW mutant) (Homo sapiens, UniProt Q14524, A410W/I408W/L409C).
T1 construct: expressed in transfected cells; host or cells: tsA201 (HEK-293 derivative)
The test can be described thus: Interaction with the open state, inactivation-deficient WCW mutant. The format is cell-based.

As for `CNCC[C@@H](Oc1ccccc1C)c1ccccc1` [atomoxetine], the results for the “hill coefficient (late current)” value in test [1] and in test [2] were 0.88 and 0.99 ± 0.17, respectively. Moreover, the IC50 was 182 ± 11.9 µM in test [1] (N = 5, read-out: half maximal effect on the late current (IC50)) and 3.06 ± 0.4 µM in test [2] (half maximal inhibition of the late current (IC50), test pulse 50 ms, −20 mV, preincubation 30 s, N = 5). Besides, the “time required to achieve a steady state condition” value in test [2] (3 µM atomoxetine) was “less than 10 ms”. In test [2] (atomoxetine up to 10 µM), the “effect on peak current (drug binding to the resting state)” value is on record as “hardly affected”.
